# Yeast mating assay 2: variants of the scFv Ab-91

Target peptide (SARS-CoV-2 spike, HR2 region): PDVDLGDISGINAS

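The starting antibody came from a phage panning campaign against this peptide. Library AAYL51 holds single substitutions and randomly drawn double and triple substitutions in the CDRs. The assay is AlphaSeq: two haploid yeast populations carry antibody and antigen on their surface. Binding brings cells together so that they mate, and sequencing counts the barcode pairs among the diploids. The ratio of observed to expected reads was calibrated, replicate by replicate, on BCL2-family standards whose Kd was known from biolayer interferometry. There are three technical replicates.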

Each scFv is VL, a (GGGGS)3 linker, VH, as in the parent Ab-91, and differs from it in the CDRs of the heavy chain only.
VL: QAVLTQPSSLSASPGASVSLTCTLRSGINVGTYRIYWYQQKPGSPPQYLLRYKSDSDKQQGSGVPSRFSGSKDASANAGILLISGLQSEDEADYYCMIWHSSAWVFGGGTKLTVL
VH: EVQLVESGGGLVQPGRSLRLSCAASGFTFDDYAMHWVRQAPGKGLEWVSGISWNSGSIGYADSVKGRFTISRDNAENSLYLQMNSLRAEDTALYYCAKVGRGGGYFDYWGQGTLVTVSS

Each variant is given by its three heavy chain CDRs, as the data file delimits them; those of the parent are GFTFDDYAMH, GISWNSGSIGYADSVK, VGRGGGYFDY.
Scale: log10 of Kd in nM, estimated from mating counts; low values are strong binders.
Averages over replicates are reported, and they cover detected replicates only.
Where no diploid with the target was found in that replicate, the entry reads "nd": below detection, most likely a poor binder, though not proof of it.
Nonspecific signal, from three strains lacking the peptide, appeared in 21% of pairings of library AAYL51, centred on 4.54 (5% of these signals below 3.26); values are not corrected for it. Also given: how often the same scFv was detected with the empty control strains.

GFTFDDYAMH, GISWNSGSIEYADSVD, VGRGGGYFDY: 4.37, nd, nd (controls 2 of 9).
GFTFDDYALH, GISWESGSIGYADSVK, VGRGGGYFDW: nd, nd, nd (controls 0 of 9).
FFTFDPYAMH, GISWNSGSIGYADSVA, VGRGGGYFDY: nd, nd, nd (controls 1 of 9).
GFFFDDYAMH, CISWNSGSIGYADSVK, VGRRGGYFDY: nd, nd, nd (controls 0 of 9).
GFTFDDYAMH, GISWNSGDIGYADPVD, VGRGGGYFDY: 0.86, 0.90, 0.32 (mean 0.69; controls 1 of 9).
GFTFDDYAMH, GISWNSGSIGYYDSTK, VWRGGGYFDY: 5.15, 6.37, 4.57 (mean 5.36; controls 3 of 9).
GFTFDDHAMH, GISWNSDSIGYADSVK, VGRGGGYFDY: 1.46, 1.39, 1.15 (mean 1.33; controls 3 of 9).
GFTYDDTAMH, GISWNSGSIGYADSVK, VGRGGGYFDY: 4.10, 3.36, 3.27 (mean 3.58; controls 1 of 9).
GFTFDDYAMH, GISWNSGTIGYAISVK, VGRGGFYFDY: 4.85, nd, nd (controls 4 of 9).
GFTFDDYADH, CISWQSGSIGYADSVK, VGRGGGYFDY: nd, nd, nd (controls 0 of 9).
GITFDDYPMH, GISWNSGSIGYADSVK, VGRGGGYFDT: 2.82, 2.67, 2.86 (mean 2.78; controls 7 of 9).
GFTFDDYAMH, GSSWNSGDIGYADSFK, VGRGGGYFDY: 5.06, nd, 5.48 (mean 5.27; controls 4 of 9).
GFTFDDYAMH, GISWNSGSIGYADSLK, VWRQGGYFDY: 4.79, 6.82, 5.55 (mean 5.72; controls 4 of 9).
GFTFDDYASH, GISWNSGSIGYADSVK, VGRGGHYFDL: nd, nd, nd (controls 0 of 9).
GFTMDDYVMH, GISWNSGSIGYALSVK, VGRGGGYFDY: nd, nd, nd (controls 3 of 9).
GFTFDDYAMH, GISTNSGSMGYADSVK, VGRGGGYFDY: 0.95, 0.90, 0.42 (mean 0.76; controls 3 of 9).
GFTFSDHASH, GISWNSGSIGYADSVK, VGRGGGYFDY: 4.56, nd, 5.69 (mean 5.12; controls 4 of 9).
GFTFDDYAMN, GISWNSGSIGYADSVK, VGRGGWYWDY: 5.03, nd, nd (controls 3 of 9).
GFTFDDYALH, GISLNSGSIGYADSVK, VGYGGGYFDY: nd, nd, nd (controls 2 of 9).
NFTFDDPAMH, GISWNVGSIGYADSVK, VGRGGGYFDY: nd, nd, 4.22 (controls 1 of 9).
GFTFDDYANH, GISWNSGWIGYADSVK, VGRGGGYFRY: 5.39, nd, nd (controls 3 of 9).
GFTFDDYAMH, GISWNSGSIGYADSMK, VGVGGGIFDY: 4.12, 4.46, nd (mean 4.29; controls 1 of 9).
GFTFDDYAMH, AISWNSGSTGYADSVK, VGRGGGYFDK: nd, nd, nd (controls 2 of 9).
GFTFDDYAMH, GISWNSGSIGYADILK, VGRGGGYFDY: nd, nd, nd (controls 1 of 9).
GFTFDDYAMH, GISWNSGSIGYACSVK, VGRGGGYFDY: 1.69, 1.78, 1.48 (mean 1.65; controls 2 of 9).
GFEFDDYAMH, GISWNSGSIGYADSVK, VGDGGEYFDY: 2.76, 2.60, 2.73 (mean 2.70; controls 3 of 9).
GFTFDDYAMH, GISWNSGPIGYKFSVK, VGRGGGYFDY: nd, nd, nd (controls 1 of 9).
GFTFDDYAMH, EISWNSGSIYYADSVK, VGRGGGYFDY: nd, nd, nd (controls 1 of 9).
GFKFDDDAMH, GHSWNSGSIGYADSVK, VGRGGGYFDY: 4.63, nd, nd (controls 1 of 9).
GWTFDDDAMH, GISWNSGSIGYADKVK, VGRGGGYFDY: 5.40, nd, nd (controls 1 of 9).
GFTFDDYAPH, GISWNSGSIGYADSVG, VGRGGGVFDY: nd, nd, nd (controls 1 of 9).
GFTFDDFAMH, GISWNAGSIGYADSVK, VGRGGGYPDY: nd, nd, nd (controls 0 of 9).
GFTFDDYAMH, GISVNSSLIGYADSVK, VGRGGGYFDY: 3.91, 4.29, 4.45 (mean 4.22; controls 6 of 9).
GFTFDDYAMH, GISWNSGSIGYADSVE, VGRGGGYFGY: 4.10, 4.44, 5.38 (mean 4.64; controls 6 of 9).
GFFFDDYAMH, GISSNSGSIGYADVVK, VGRGGGYFDY: 1.73, 1.48, 1.29 (mean 1.50; controls 1 of 9).
GFTRDDYAMH, GQSWNSGSIGYADSVK, VGKGGGYFDY: 4.76, nd, 3.81 (mean 4.29; controls 3 of 9).

The last 6 entries again:

With GFTFDDYAPH, GISWNSGSIGYADSVG, VGRGGGVFDY the result was nd, nd, nd (controls 1 of 9).
With GFTFDDFAMH, GISWNAGSIGYADSVK, VGRGGGYPDY the result was nd, nd, nd (controls 0 of 9).
With GFTFDDYAMH, GISVNSSLIGYADSVK, VGRGGGYFDY the result was 3.91, 4.29, 4.45 (mean 4.22; controls 6 of 9).
With GFTFDDYAMH, GISWNSGSIGYADSVE, VGRGGGYFGY the result was 4.10, 4.44, 5.38 (mean 4.64; controls 6 of 9).
With GFFFDDYAMH, GISSNSGSIGYADVVK, VGRGGGYFDY the result was 1.73, 1.48, 1.29 (mean 1.50; controls 1 of 9).
With GFTRDDYAMH, GQSWNSGSIGYADSVK, VGKGGGYFDY the result was 4.76, nd, 3.81 (mean 4.29; controls 3 of 9).

In this assay the parent's reference entry averaged 1.86; its copy inside this library read 0.88.

Values reported by Engelhart et al. 2022, doi:10.1038/s41597-022-01779-4 (FLAb copy).